Columns and labels:
[1] = target: T1, Gonadotropin-releasing hormone receptor (Homo sapiens, UniProt P30968); test: Antagonist activity at human recombinant GnRH receptor assessed as inhibition of GnRH-stimulated inositol phosphate accumulation; type: functional
T1 sequence (P30968 whole entry): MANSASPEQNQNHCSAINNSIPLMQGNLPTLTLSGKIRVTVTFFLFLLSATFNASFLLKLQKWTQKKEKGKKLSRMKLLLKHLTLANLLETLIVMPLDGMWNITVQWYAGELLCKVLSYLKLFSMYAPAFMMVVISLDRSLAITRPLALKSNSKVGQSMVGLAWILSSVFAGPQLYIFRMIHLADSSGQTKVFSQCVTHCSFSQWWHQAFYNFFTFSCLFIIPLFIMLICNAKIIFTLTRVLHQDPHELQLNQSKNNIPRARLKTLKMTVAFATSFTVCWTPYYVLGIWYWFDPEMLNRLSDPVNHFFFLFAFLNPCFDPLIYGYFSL

[2] = target: T1, Gonadotropin-releasing hormone receptor; test: Binding affinity to human recombinant GnRH receptor

COc1nc(NCCCN2CCOCC2)nc(OC)c1NC(=O)c1ccc(Oc2cc3c(cc2C)CCC3(C)C)o1 was tested, and the IC50 [1] was 3.3 nM and the Ki [2] was 0.4 nM.
